{"source": "patent US8895503B2", "about": "“Pharmaceutical composition for transnasal administration of peptide hormones or cytokines” (Toray Industries, Inc., priority 2008, dated 2014)", "assay": "Nasal administration of fluorescently-labeled dextran FD-4 (Example 3)", "conditions": "male, SD, rat, in vivo", "procedure": "A fluorescently-labeled dextran FD-4 (Molecular probes, Inc.) was diluted with PBS to provide a 4 mg/ml solution. Using 40 μl of this solution, the evaluation was carried out in the same manner as in Example 1. The FD concentration in blood was quantified by fluorometry. The bioavailability was calculated by comparison with the case where the same amount of FD-4 was intravenously administered.", "data": [{"compound": "CC[C@@H](C)[C@@H](NC(=O)[C@@H](CCCCN)NC(=O)[C@H](NC(=O)[C@@H](CCC(N)=O)NC(=O)[C@H](N)CCCNC(=N)N)[C@H](C)CC)C(=O)N[C@H](Cc1c[nH]c2ccccc12)C(=O)N[C@H](Cc1ccccc1)C(=O)N[C@H](CCC(N)=O)C(=O)N[C@H](CC(N)=O)C(=O)N[C@H](CCCNC(=N)N)C(=O)N[C@H](CCCNC(=N)N)C(=O)N[C@H](CCSC)C(=O)N[C@H](CCCCN)C(=O)N[C@H](Cc1c[nH]c2ccccc12)C(=O)N[C@H](CCCCN)C(=O)N[C@H](CCCCN)C(=O)O", "note": "[D-penetratin]", "values": [{"measurement": "bioavailability of FD-4", "value": 36, "unit": "%"}]}]}
